Experimental data published in ChEMBL document CHEMBL5500370, “Discovery of potent and novel dual NAMPT/BRD4 inhibitors for efficient treatment of hepatocellular carcinoma” (Eur J Med Chem, 2024).
Activity calls are given as the source filed them.

How the values were obtained:
Assay type in all cases: functional, cell-based
Hep 3B2 [1] = assay: Downregulation of c-Myc level in human Hep3B cells at 10 uM measured after 48 hrs in presence of FK866 by Western blot analysis
Hep 3B2 [2] = assay: Downregulation of YAP-1 level in human Hep3B cells at 10 uM measured after 48 hrs in presence of FK866 by Western blot analysis
Hep 3B2 [3] = assay: Induction of apoptosis in human Hep3B cells at 10 uM measured after 48 hrs in presence of FK866 by Annexin V-FITC/Pi staining based flow cytometry
Hep 3B2 [4] = assay: Downregulation of NAPRT level in human Hep3B cells at 10 uM measured after 48 hrs in presence of FK866 by Western blot analysis
Hep 3B2 [5] = assay: Downregulation of NAMPT level in human Hep3B cells at 10 uM measured after 48 hrs in presence of FK866 by Western blot analysis
Hep 3B2 [6] = assay: Downregulation of NAD+ level in human Hep3B cells at 10 uM measured after 72 hrs in presence of FK866
Hep 3B2 [7] = assay: Downregulation of NAPRT level in human Hep3B cells at 10 uM measured after 48 hrs by Western blot analysis
Hep 3B2 [8] = assay: Downregulation of NAMPT level in human Hep3B cells at 10 uM measured after 48 hrs by Western blot analysis
Hep 3B2 [9] = assay: Downregulation of c-Myc level in human Hep3B cells at 10 uM measured after 48 hrs in presence of JQ1 by Western blot analysis
Hep 3B2 [10] = assay: Downregulation of YAP-1 level in human Hep3B cells at 10 uM measured after 48 hrs in presence of JQ1 by Western blot analysis
Hep 3B2 [11] = assay: Induction of apoptosis in human Hep3B cells at 10 uM measured after 48 hrs in presence of JQ1 by Annexin V-FITC/Pi staining based flow cytometry
Hep 3B2 [12] = assay: Downregulation of NAPRT level in human Hep3B cells at 10 uM measured after 48 hrs in presence of JQ1 by Western blot analysis
Hep 3B2 [13] = assay: Downregulation of NAMPT level in human Hep3B cells at 10 uM measured after 48 hrs in presence of JQ1 by Western blot analysis
Hep 3B2 [14] = assay: Downregulation of NAD+ level in human Hep3B cells at 10 uM measured after 72 hrs in presence of JQ1

Measured: Activity

Cc1sc2c(c1C)C(c1ccc(Cl)cc1)=N[C@@H](CC(=O)OC(C)(C)C)c1nnc(C)n1-2
active: Hep 3B2 [1] | Hep 3B2 [2] | Hep 3B2 [3] | Hep 3B2 [4] | Hep 3B2 [5] | Hep 3B2 [6] | Hep 3B2 [7] | Hep 3B2 [8]

O=C(/C=C/c1cccnc1)NCCCCC1CCN(C(=O)c2ccccc2)CC1 [DAPORINAD]
active: Hep 3B2 [9] | Hep 3B2 [10] | Hep 3B2 [11] | Hep 3B2 [12] | Hep 3B2 [13] | Hep 3B2 [14] | Hep 3B2 [7] | Hep 3B2 [8]
